# Assay results from patent US6833372B2, “Non-peptide GnRH agents, Pharmaceutical compositions, and methods for their use” (Pfizer, Inc., priority 2002, dated 2004).
# Molecular target: T1, GGH3 cells (GH3 cells stably transfected with the rat GnRH receptor) (Rattus norvegicus, UniProt P30969)
# T1 construct: host or cells: GH3 cells stably transfected (GGH3), whole cells
# T1 sequence (P30969 1-327): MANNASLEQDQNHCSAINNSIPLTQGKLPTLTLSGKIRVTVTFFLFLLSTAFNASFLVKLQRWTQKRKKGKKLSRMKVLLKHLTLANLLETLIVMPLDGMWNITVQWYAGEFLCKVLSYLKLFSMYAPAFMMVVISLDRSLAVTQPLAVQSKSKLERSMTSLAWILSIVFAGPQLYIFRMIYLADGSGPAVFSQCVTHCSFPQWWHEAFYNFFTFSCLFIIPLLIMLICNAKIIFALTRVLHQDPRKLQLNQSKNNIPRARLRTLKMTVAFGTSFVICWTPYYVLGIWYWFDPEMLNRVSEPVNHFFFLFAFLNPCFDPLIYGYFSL
# Test: Effect of compounds on 125I-GnRH-A binding to GGH3 cells (competition radioligand binding, whole cells)
# Conditions: on ice 2 hr
# Procedure: Cell Culture. GGH3 cells (Dr. William Chin, Harvard Medical School, Boston, Mass.) are grown in low glucose Dulbecco's modified Eagle's medium (DMEM) containing 100 U/mL penicillin/streptomycin, 0.6 g/L G418 and 10% heat-inactivated FBS.
# The radioiodinated agonist analog of GnRH, ^125I-GnRH-A, is used as the radioligand. One μg of GnRH-A diluted in 0.1M acetic acid is added to an Ioogen®-coated borosilicate glass tube (Pierce) containing 35 μl of 0.05 M phosphate buffer (pH 7.4-7.6) and 1 mCi of Na[^125I]. The reaction mixture is vortexed and incubated for 1 min at room temperature. […] Fractions are assessed for biological activity by radioligand binding.
# Approximately two million GGH3 cells/tube are utilized for radioligand binding. ^125I-GnRH-A (approximately 0.1-0.3 nM) is incubated with cells in the presence or absence of competing agents in a final volume of 300 μl binding assay buffer [50 mM HEPES (pH 7.4), 1 mM EDTA, 2.5 mM MgCl2, and 0.1% BSA] to test the ability of compounds to displace agonist binding. […] Filters are counted on a gamma counter.
# In order to assess the specific functionality, compounds were assessed for their ability to inhibit ^125I-GnRH-A binding to GGH3 cells. […]
substance,measurement,value
"[D-Ala^6, des-Gly^10]proethylamide^9-LHRH [GnRH-A]",ability to inhibit 125I-GnRH-A binding to GGH3 cells,blocked
